# Patent US20250381249A1, “COMBINATION TREATMENT FOR RESISTANT HYPERTENSION” (Mayo Foundation for Medical Education and Research, priority 2018, published 2025)
# Test: Acute study in SHR, plasma ANP radioimmunoassay as assessment of MANP
# Type: in vivo, rat
# Conditions: for Plasma ANP: after 60-min treatment, mean±SEM
# Experimental: Acute Study Protocol in SHR: The cardiorenal and neurohumoral actions of MANP, Fs, or their combination were investigated in the genetic model of hypertension in male SHR (n=6 in each group). Rats were anesthetized in an induction chamber with inhaled Isoflurane 2.5%. During this brief state of anesthesia, the rats were administered IP Inactin 100 mg/kg to maintain anesthesia. An oxygen mask was used until the end of the experiment. The carotid artery was cannulated for arterial pressure measurements and the right jugular vein was cannulated for infusions. Pressures were recorded and analyzed digitally (Sonometrics, London, Ontario, Canada). Via a small incision in the lower abdominal wall, the bladder was cannulated for urine sampling.
# Immediately after preparation, a 30-minute equilibration period was started with intravenous inulin infusion. […] After baseline measurements, rats were randomly assigned to ten groups: • Group 1—treated with MANP100; • Group 2—treated with MANP300; • Group 3—treated with MANP600; • Group 4—treated with Fs1; • Group 5—treated with Fs5; • Group 6—treated with Fs10; • Group 7—treated with MANP300+Fs5; • Group 8—treated with MANP300+Fs10; • Group 9—treated with MANP600+Fs10; and • Group 10—treated with inulin, normal saline, or inulin and normal saline. For Groups 1-3, after a 15-minute lead-in of MANP infusion, MANP was continuously infused for a total of 60 minutes. Animals in Groups 4-6 received a single intravenous (IV) bolus administration of Fs. MANP+Fs Groups 7-9 received a single IV bolus injection of Fs followed by a 15-minute lead-in infusion of MANP with a further 60-minute continuous infusion of MANP at the same dose. The control animals (Group 10) received a continuous inulin infusion as an MANP control, a single IV bolus injection of 0.9% normal saline as a Fs control, or the combination of a single IV bolus of 0.9% normal saline and continuous inulin infusion as a control for MANP+Fs treatment.
# Neurohormonal and Electrolyte Analysis: Plasma ANP was measured by radioimmunoassay (Phoenix Pharmaceuticals) as an assessment of MANP, as the ANP RIA fully detects MANP (Burnett et al. (1986) Science 231(4742):1145-1147). Plasma and urinary cGMP (Enzo Life Sciences) and aldosterone (DRG International, Springfield, NJ) were determined by ELISA. Inulin concentrations were measured using the anthrone method, as described elsewhere (Fuhr et al. (1955) Klin. Wochenschr 33:729-730). GFR was calculated by inulin clearance. Electrolytes were measured by flame photometry (IL943, Instrumentation Laboratory, UK). All measurements were performed according to manufacturer instructions.
smiles,measurement,setting,value
CC[C@H](C)[C@@H]1NC(=O)[C@H](CCCNC(=N)N)NC(=O)[C@H](CC(=O)O)NC(=O)[C@H](CCSC)NC(=O)[C@H](CCCNC(=N)N)NC(=O)CNC(=O)CNC(=O)[C@H](Cc2ccccc2)NC(=O)[C@@H](NC(=O)[C@H](CO)NC(=O)[C@H](CO)NC(=O)[C@H](CCCNC(=N)N)NC(=O)[C@H](CCCNC(=N)N)NC(=O)[C@H](CC(C)C)NC(=O)[C@@H](N)CO)CSSC[C@@H](C(=O)N[C@@H](CC(N)=O)C(=O)N[C@@H](CO)C(=O)N[C@@H](Cc2ccccc2)C(=O)N[C@@H](CCCNC(=N)N)C(=O)N[C@@H](Cc2ccc(O)cc2)C(=O)N[C@@H](CCCNC(=N)N)C(=O)N[C@H](C(=O)N[C@H](C(=O)N[C@@H](C)C(=O)N[C@@H](CCCNC(=N)N)C(=O)N[C@@H](CCC(=O)O)C(=O)N[C@@H](CC(=O)O)C(=O)N[C@@H](CCCCN)C(=O)N[C@@H](CCC(N)=O)C(=O)NCC(=O)N[C@@H](Cc2c[nH]c3ccccc23)C(=O)N[C@@H](C)C(=O)O)[C@@H](C)O)[C@@H](C)CC)NC(=O)CNC(=O)[C@H](CC(C)C)NC(=O)CNC(=O)[C@H](CO)NC(=O)[C@H](CCC(N)=O)NC(=O)[C@H](C)NC(=O)CNC1=O [MANP],plasma ANP immunoreactivity as a measure of MANP immunoreactivity,MANP infusion alone or in combination with Fs,significant increases
same,Plasma ANP,MANP 100 pmol/kg/min,430 ± 99 pg/mL
same,Plasma ANP,MANP 300 pmol/kg/min,2577 ± 568 pg/mL
same,Plasma ANP,MANP 600 pmol/kg/min,20611 ± 3041 pg/mL
